Reference: US7803826B2, “Imidazolidine derivatives” (Chugai Seiyaku Kabushiki Kaisha, priority 2004, dated 2010)

Sequences of proteins named here, by UniProt entry; tags and fusion partners are left off.
UniProt P10275, whole entry: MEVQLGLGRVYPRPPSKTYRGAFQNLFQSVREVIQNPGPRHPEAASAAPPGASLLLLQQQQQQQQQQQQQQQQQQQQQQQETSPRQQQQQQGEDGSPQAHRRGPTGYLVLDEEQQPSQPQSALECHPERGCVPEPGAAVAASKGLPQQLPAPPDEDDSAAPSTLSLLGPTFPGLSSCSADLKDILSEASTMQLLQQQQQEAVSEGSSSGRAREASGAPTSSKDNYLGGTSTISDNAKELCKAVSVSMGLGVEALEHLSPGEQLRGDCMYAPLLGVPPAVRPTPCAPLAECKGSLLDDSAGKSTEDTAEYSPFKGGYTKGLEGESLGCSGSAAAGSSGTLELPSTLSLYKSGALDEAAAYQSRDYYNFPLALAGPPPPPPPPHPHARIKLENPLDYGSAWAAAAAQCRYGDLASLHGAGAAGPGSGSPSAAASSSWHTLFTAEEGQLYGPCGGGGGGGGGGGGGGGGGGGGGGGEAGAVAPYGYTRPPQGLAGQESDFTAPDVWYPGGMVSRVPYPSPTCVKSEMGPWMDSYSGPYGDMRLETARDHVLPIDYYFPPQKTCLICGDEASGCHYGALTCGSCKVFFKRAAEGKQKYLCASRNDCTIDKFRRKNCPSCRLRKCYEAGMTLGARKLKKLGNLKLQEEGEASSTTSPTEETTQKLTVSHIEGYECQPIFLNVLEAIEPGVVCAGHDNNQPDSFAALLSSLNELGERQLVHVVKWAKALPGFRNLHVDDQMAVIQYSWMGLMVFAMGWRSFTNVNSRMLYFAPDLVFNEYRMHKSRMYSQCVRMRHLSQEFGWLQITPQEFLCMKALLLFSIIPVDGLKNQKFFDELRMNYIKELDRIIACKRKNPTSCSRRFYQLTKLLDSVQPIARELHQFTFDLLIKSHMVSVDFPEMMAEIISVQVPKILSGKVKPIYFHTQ

Tests used:
androgen receptor [1] = target: T1, androgen receptor (Homo sapiens, UniProt P10275); assay: Investigation of agonist effects: androgen receptor reporter gene (MMTV-luciferase) assay in 11A11B2 cells; format: cell-based; settings: compound concentration showing a transcription activity of 5% (0.1 nmol/L DHT = 100%, assay medium alone = 0%), 48 hours
androgen receptor [2] = target: T1, androgen receptor; assay: Investigation of antagonist effects: androgen receptor reporter gene (MMTV-luciferase) assay in 11A11B2 cells with 0.1 nmol/L DHT; format: cell-based; settings: 48 hours, agonist transcription activity rate of Test Example 1 subtracted

## Cc1c(N2C(=O)C(C)(C)N(CCCS(N)(=O)=O)C2=S)ccc(C#N)c1C(F)(F)F
Androgen receptor [1]
  EC5: 2000 nM
Androgen receptor [2]
  IC50: 0.1 µM
